In patent publication US9180183B2, “Phospholipid drug analogs” (Telormedix SA, priority 2010, dated 2015):

Legend:
[1] = test system: Cutaneous Squamous Cell Carcinoma (SCC) cell lines SCL-I, SCL-II, SCC-12, SCC-13; assay: Proapoptotic and cytotoxic effects on cutaneous SCC cell lines (real-time cell analysis, microscopy); type: cell-based, human; details: SCC cells; time of treatment 3d; 120 microM
Protocol: SCC cells are grown under standard conditions (10% FBS).
Time and dose dependency of effects on total cell numbers have been investigated by real-time cell analysis, which is based on continuous monitoring of electric conductance in microtiter wells (E-plates, Roche), which corresponds to the cell numbers. […] For these assays 4 cell lines should be used to obtain a representative overview on the effects on SCC cells.

[2] = Serum exposure after intravesical chronic treatment in mouse; details: intravesical 0.1%, LLOQ 2.5 ng/ml
Protocol: Serum samples were taken at time points: day 0, 2 hours, day 1, 24 hours, and day 6, 2 hours.
Samples were evaporated and re-suspended in 70 microliters of acetonitrile/methanol 1:1.

CC(C)Cn1cnc2c(N)nc3ccccc3c21 [Imiquimod, reference compound]
morphological changes (microscopy) [1]: cell detachment, morphological changes and inhibition of proliferation
Imiquimod levels in serum, Mean ± S.D. ([2]; Day 0, 2 hours): 6.2 ± 0.8 ng/mL
Imiquimod levels in serum, individual mice ([2]; Day 0, 2 hours): 6.4 ng/mL and 6.8 ng/mL and 5.3 ng/mL
Imiquimod levels in serum, individual mice ([2]; Day 1, 24 hours): <LLOQ
Imiquimod levels in serum, Mean ± S.D. ([2]; Day 6, 2 hours): 8.9 ± 5.6 ng/mL
Imiquimod levels in serum, individual mice ([2]; Day 6, 2 hours): 2.8 ng/mL and 8.1 ng/mL and 16.3 ng/mL and 8.7 ng/mL

Several values for one entry are separate records, joined by “and”; a condition that tells them apart may be missing. Identical values can stand only once.
